## scFv variants of Ab-14 (heavy chain) against a SARS-CoV-2 spike peptide

Reference: Engelhart et al. 2022, doi:10.1038/s41597-022-01779-4. File: FLAb, binding data.

Target peptide (SARS-CoV-2 spike, HR2 region): PDVDLGDISGINAS

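The parent was found by panning a naive human phage display library on the peptide. Library AAYL49 holds single substitutions and randomly drawn double and triple substitutions in the CDRs. In AlphaSeq, yeast of one mating type display the scFv and yeast of the other type display the target. After mating in shaken culture at 30 °C for 16 h, diploids were selected and their barcode pairs sequenced. Read counts were normalised to the haploid input and turned into Kd by a linear fit to BCL2-family pairs of known affinity, for each replicate. Mating was done three times.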

Parent: Ab-14, a human scFv built as VH, a (GGGGS)3 linker, VL. Only the CDRs of the heavy chain vary.
VH: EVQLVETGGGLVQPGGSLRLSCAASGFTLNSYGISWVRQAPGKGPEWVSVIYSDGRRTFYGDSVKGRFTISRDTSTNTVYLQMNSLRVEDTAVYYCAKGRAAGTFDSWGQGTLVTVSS
VL: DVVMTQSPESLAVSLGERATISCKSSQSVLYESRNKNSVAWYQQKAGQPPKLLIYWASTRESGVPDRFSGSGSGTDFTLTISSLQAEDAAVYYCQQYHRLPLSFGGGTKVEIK

The parent's heavy chain CDRs are GFTLNSYGIS, VIYSDGRRTFYGDSVK, GRAAGTFDS; each variant's own CDRs replace them letter for letter. Each Kd is an estimate from the mating assay, the geometric mean of the replicates in which the pair was seen; lower is stronger. A pair that was not seen in any replicate is written "not detected"; this usually means weak binding, but a binder can also be missed. Empty control strains, which show no peptide, gave a signal in 15% of pairings with library AAYL49; the median was 11 µM and 95% of these signals were weaker than 680 nM. No background was subtracted.

| # | CDR-H1 | CDR-H2 | CDR-H3 | Kd | detected |
|---|---|---|---|---|---|
| 1 | GFTLNSYGIS | VILSDGRRTHYGDSVK | GRAAGTFDS | 7.3 µM | 1 of 3 |
| 2 | GFTLNSYGIS | VIYSDGRRTFIGDSVK | DRAANTFDS | 55 µM | 1 of 3 |
| 3 | GFTDNSYGIS | DIYSDGRRTFPGDSVK | GRAAGTFDS | not detected | 0 of 3 |
| 4 | GNTLNSYGIS | VIYSDGRRTFYGDSVK | GHAAGTYDS | 72 nM | 3 of 3 |
| 5 | GFTLNSYGIS | VIYSDGRRTFPGDSVK | GRAADTFPS | not detected | 0 of 3 |
| 6 | GYTLNSYGIS | VIYSIGRRTFVGDSVK | GRAAGTFDS | not detected | 0 of 3 |
| 7 | GFTLNSYGIS | VFYSDGNRTFYGDSVK | VRAAGTFDS | 12 µM | 1 of 3 |
| 8 | GFTLNSYGIS | VIYSDGGRTFYGDSVK | GRAAGTSDE | not detected | 0 of 3 |
| 9 | GFTLNSYGIS | VIYSDGRRTFYGESPK | GRAAGTFDF | not detected | 0 of 3 |
| 10 | GFTLNSYGVS | VIYSMGRRTFYGDSVK | GYAAGTFDS | 3.4 µM | 1 of 3 |
| 11 | GFTLNSVGIS | VIFSDGRRTFYGDSVK | GRAAGTFKS | not detected | 0 of 3 |
| 12 | ACTLNSYGIS | VIYSDGRRDFYGDSVK | GRAAGTFDS | not detected | 0 of 3 |
| 13 | GFTLNVYGIS | AIYSDGRRTFYGDSVK | GRAAGTFDS | not detected | 0 of 3 |
| 14 | GFRLNSYGIS | VIYSDGRRTFLGDSVK | GRAAWTFDS | not detected | 0 of 3 |
| 15 | GFTLNSYGIS | VIYSDGRRTFYGMSVK | GRAAGVFDY | 860 nM | 1 of 3 |
| 16 | GFTLNDIGIS | VIYSDGWRTFYGDSVK | GRAAGTFDS | not detected | 0 of 3 |
| 17 | GFTLNSYGIS | QIYSDGRRTFYGDSVK | GRAAGTRDM | 10 µM | 1 of 3 |
| 18 | GFTLNSYGIS | VIYSDGRRPFYGDSVK | GRAAGTFPS | 420 µM | 1 of 3 |
| 19 | GKTLNSYGIS | VWYSDGRRTFYGDSVK | GRAAGTEDS | not detected | 0 of 3 |
| 20 | GFTLNSYGIS | VIYSDGRRFFSGDSVK | DRAAGTFDS | not detected | 0 of 3 |
| 21 | GFGLNSYGIS | VIYSDGRRTSYGDIVK | GRAAGTFDS | 630 nM | 2 of 3 |
| 22 | GFTLNSYGIS | VIYADGFWTFYGDSVK | GRAAGTFDS | 400 nM | 1 of 3 |
| 23 | GFTLNSYHIS | VIYMDGRRTGYGDSVK | GRAAGTFDS | not detected | 0 of 3 |
| 24 | GFTLNSYGIS | VIYSDGNCTFYTDSVK | GRAAGTFDS | not detected | 0 of 3 |
| 25 | GQTLNSYGIS | VIYSDGSRTAYGDSVK | GRAAGTFDS | 4.2 nM | 3 of 3 |
| 26 | GFTLNSYGFS | VIYSDGYRTFYGDSVK | GRAAGTFDS | not detected | 0 of 3 |
| 27 | GFTLNRYGIS | VIYSDGRRTCYGDSVR | GRAAGTFDS | 430 nM | 2 of 3 |
| 28 | GFTLDSSGIS | VIYSDGRRTFYGDSVK | GRAAGTYDS | not detected | 0 of 3 |
| 29 | GFTLNSYGKS | VPYSDGRRTFYGDSVK | GLAAGTFDS | not detected | 0 of 3 |
| 30 | GFTLNSYGIS | VIKNDGRRTFYGDSVK | GRAAGTFDG | not detected | 0 of 3 |
| 31 | GFTLNSYGIS | VIYSPGVRTFYGDSVK | SRAAGTFDS | not detected | 0 of 3 |
| 32 | GPTLNSYGIS | VIYSFGRRWFYGDSVK | GRAAGTFDS | 68 µM | 1 of 3 |
| 33 | GTTLNSYGIS | VDYSDGRRTFYGDSVK | GRAAGTFDS | 8.5 µM | 1 of 3 |
| 34 | GFTLNSYGIS | VIYSDGRRTFYGDSVK | GRAAGKRDS | not detected | 0 of 3 |
| 35 | GATLESSGIS | VIYSDGRRTFYGDSVK | GRAAGTFDS | 40 µM | 1 of 3 |
| 36 | GFTLPSYGQS | VIYSDGRRTFYGDSVK | GRAAGTFDS | not detected | 0 of 3 |
| 37 | GFTLESYGIS | VIYSDGRRTFYGESVK | GRYAGTFDS | 9.0 nM | 3 of 3 |
| 38 | GFTLNSYGIS | IIYSDGRRTFYRDSVK | GRAAGTFDS | 6.4 µM | 3 of 3 |
| 39 | GFTLNSYGHS | VIYSLGRRTFVGDSVK | GRAAGTFDS | not detected | 0 of 3 |
| 40 | GFTLNSYGVS | VCYSDGRRTFYGDSVK | GRAAGTFYS | 3.3 µM | 2 of 3 |
| 41 | GFTLNSYGIS | VIYSDGRRTFYGDSVK | RRAARHFDS | 3.7 µM | 1 of 3 |
| 42 | GFTLNSEGIS | VIYSDGRRTFYGDSVH | MRAAGTFDS | not detected | 0 of 3 |
| 43 | GFMLNSYGIS | VIYSDGSRTFYGLSVK | GRAAGTFDS | 84 µM | 1 of 3 |
| 44 | GFTSNSYGIS | VIYSDGRMTFYGDSVK | GRAAMTFDS | not detected | 0 of 3 |
| 45 | GFTLNSYGIS | IIYSDGWETFYGDSVK | GRAAGTFDS | not detected | 0 of 3 |
| 46 | GFTLNSYGIS | VIYSDGRRRFYGDSVP | GRAAGTQDS | not detected | 0 of 3 |
| 47 | GFTLNSYGIS | VDYSDLNRTFYGDSVK | GRAAGTFDS | 1.9 µM | 1 of 3 |
| 48 | GFTLNSYGID | VIYSDPRRTFYGDSVK | GRAAGTFDR | not detected | 0 of 3 |
| 49 | GFTLNSSGIS | VIYSDGRRTFYGDPVK | GRAAGTFDS | not detected | 0 of 3 |
| 50 | GFTLNSYGIS | VIYSWGRRTFYGDSVK | GRAAGTWDS | 1.3 µM | 1 of 3 |
| 51 | GFTLNSYGIS | VIYSDGRITFYGDSVK | GRAAGTYDA | 8.5 µM | 1 of 3 |
| 52 | GFTLNSYGIS | VIYSDGLRTFIGDFVK | GRAAGTFDS | 29 µM | 3 of 3 |
| 53 | GFTLNYYGIS | VIYSDGRGHFYGDSVK | GRAAGTFDS | 2.5 µM | 1 of 3 |
| 54 | GFTLNSYGWS | VKYSDGRRTFYGDSVK | GRAAGKFDS | not detected | 0 of 3 |
| 55 | GFTLNSYGIS | VIYSDGRRTFYGWSKK | GRAVGTFDS | 2.8 µM | 1 of 3 |
| 56 | GFTLNSYGIL | VIYSDGRRWFFGDSVK | GRAAGTFDS | 360 nM | 1 of 3 |
| 57 | GFTLNSYGIS | VIYSDGMRTRYGDSVK | GRAAGTYDS | 48 nM | 3 of 3 |
| 58 | GFTLNSYGIS | VIYSDGRATFYGDSVK | SQAAGTFDS | 13 µM | 2 of 3 |
| 59 | GFTLNSYGIS | VKYSMGRRTFYGDSVK | GRIAGTFDS | 40 µM | 2 of 3 |
| 60 | GFTLNSYGVS | AIYSDGRRTFYGDSVK | GRAAGTFDS | 7.3 µM | 1 of 3 |
| 61 | GFTLQSYGIY | VIYSDGRRTFYGDNVK | GRAAGTFDS | not detected | 0 of 3 |
| 62 | GFTLNSYGIS | VIYSDGRRTFYGDSVK | PKAAGDFDS | not detected | 0 of 3 |
| 63 | GFALNSYGIS | VIYSDGRRTFDGDSVK | GFAAGTFDS | not detected | 0 of 3 |
| 64 | EFTLNSYGIS | VIYTDGRRTFYGDSVK | GRAAGTFES | not detected | 0 of 3 |

A selection of 9 entries from above:

{"CDR-H1": "GFTLNSYGIS", "CDR-H2": "VIYSDGNCTFYTDSVK", "CDR-H3": "GRAAGTFDS", "Kd": "not detected", "detected": "0 of 3"}
{"CDR-H1": "GFTLNSYGIS", "CDR-H2": "VIYSDGRRTFYGDSVK", "CDR-H3": "PKAAGDFDS", "Kd": "not detected", "detected": "0 of 3"}
{"CDR-H1": "GFTLNSYGIS", "CDR-H2": "QIYSDGRRTFYGDSVK", "CDR-H3": "GRAAGTRDM", "Kd": "10 µM", "detected": "1 of 3"}
{"CDR-H1": "GFTLNSYGIS", "CDR-H2": "VFYSDGNRTFYGDSVK", "CDR-H3": "VRAAGTFDS", "Kd": "12 µM", "detected": "1 of 3"}
{"CDR-H1": "GFTLNSYGVS", "CDR-H2": "AIYSDGRRTFYGDSVK", "CDR-H3": "GRAAGTFDS", "Kd": "7.3 µM", "detected": "1 of 3"}
{"CDR-H1": "GFTLNRYGIS", "CDR-H2": "VIYSDGRRTCYGDSVR", "CDR-H3": "GRAAGTFDS", "Kd": "430 nM", "detected": "2 of 3"}
{"CDR-H1": "GFTLNSYGVS", "CDR-H2": "VIYSMGRRTFYGDSVK", "CDR-H3": "GYAAGTFDS", "Kd": "3.4 µM", "detected": "1 of 3"}
{"CDR-H1": "GKTLNSYGIS", "CDR-H2": "VWYSDGRRTFYGDSVK", "CDR-H3": "GRAAGTEDS", "Kd": "not detected", "detected": "0 of 3"}
{"CDR-H1": "GFTLNSYGIS", "CDR-H2": "VIYSDGRRPFYGDSVK", "CDR-H3": "GRAAGTFPS", "Kd": "420 µM", "detected": "1 of 3"}